In patent US6770652B2, “Multiple acting anti-angiogenic and cytotoxic compounds and methods for using the same” (Duquesne University of the Holy Ghost, priority 2001, dated 2004) one finds IC50 data, which are given here for ten compounds.

By UniProt entry, the sequences of proteins in these tests, tags left out. Residues count along the entry.
UniProt P09619, 33-1106: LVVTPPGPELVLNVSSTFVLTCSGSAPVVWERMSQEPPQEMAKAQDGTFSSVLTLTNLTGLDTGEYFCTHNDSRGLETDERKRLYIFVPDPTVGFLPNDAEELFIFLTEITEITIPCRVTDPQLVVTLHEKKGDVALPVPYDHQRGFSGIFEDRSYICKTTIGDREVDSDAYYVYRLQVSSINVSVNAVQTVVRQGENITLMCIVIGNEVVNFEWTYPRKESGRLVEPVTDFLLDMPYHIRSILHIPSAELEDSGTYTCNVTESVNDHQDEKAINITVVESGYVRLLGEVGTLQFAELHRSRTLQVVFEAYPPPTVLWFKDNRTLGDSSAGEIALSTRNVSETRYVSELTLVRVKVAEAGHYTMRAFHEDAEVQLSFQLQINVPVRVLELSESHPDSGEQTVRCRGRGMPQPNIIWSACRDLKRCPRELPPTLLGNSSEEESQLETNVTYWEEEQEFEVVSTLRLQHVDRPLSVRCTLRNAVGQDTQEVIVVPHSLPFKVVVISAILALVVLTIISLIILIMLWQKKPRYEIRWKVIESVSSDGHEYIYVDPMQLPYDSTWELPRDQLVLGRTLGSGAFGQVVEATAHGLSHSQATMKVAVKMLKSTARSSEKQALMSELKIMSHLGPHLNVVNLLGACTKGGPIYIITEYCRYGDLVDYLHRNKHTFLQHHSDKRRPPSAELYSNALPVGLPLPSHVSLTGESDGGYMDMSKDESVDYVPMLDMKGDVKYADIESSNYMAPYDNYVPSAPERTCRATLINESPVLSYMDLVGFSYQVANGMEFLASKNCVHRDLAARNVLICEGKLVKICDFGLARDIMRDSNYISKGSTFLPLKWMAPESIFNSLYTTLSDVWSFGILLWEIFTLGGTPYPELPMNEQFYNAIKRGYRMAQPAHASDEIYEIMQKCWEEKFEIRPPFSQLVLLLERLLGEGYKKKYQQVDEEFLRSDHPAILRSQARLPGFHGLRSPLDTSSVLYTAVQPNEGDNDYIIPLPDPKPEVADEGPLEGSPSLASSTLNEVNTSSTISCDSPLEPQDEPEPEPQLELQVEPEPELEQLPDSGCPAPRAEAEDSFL
UniProt P17948, 27-1338, species assumed: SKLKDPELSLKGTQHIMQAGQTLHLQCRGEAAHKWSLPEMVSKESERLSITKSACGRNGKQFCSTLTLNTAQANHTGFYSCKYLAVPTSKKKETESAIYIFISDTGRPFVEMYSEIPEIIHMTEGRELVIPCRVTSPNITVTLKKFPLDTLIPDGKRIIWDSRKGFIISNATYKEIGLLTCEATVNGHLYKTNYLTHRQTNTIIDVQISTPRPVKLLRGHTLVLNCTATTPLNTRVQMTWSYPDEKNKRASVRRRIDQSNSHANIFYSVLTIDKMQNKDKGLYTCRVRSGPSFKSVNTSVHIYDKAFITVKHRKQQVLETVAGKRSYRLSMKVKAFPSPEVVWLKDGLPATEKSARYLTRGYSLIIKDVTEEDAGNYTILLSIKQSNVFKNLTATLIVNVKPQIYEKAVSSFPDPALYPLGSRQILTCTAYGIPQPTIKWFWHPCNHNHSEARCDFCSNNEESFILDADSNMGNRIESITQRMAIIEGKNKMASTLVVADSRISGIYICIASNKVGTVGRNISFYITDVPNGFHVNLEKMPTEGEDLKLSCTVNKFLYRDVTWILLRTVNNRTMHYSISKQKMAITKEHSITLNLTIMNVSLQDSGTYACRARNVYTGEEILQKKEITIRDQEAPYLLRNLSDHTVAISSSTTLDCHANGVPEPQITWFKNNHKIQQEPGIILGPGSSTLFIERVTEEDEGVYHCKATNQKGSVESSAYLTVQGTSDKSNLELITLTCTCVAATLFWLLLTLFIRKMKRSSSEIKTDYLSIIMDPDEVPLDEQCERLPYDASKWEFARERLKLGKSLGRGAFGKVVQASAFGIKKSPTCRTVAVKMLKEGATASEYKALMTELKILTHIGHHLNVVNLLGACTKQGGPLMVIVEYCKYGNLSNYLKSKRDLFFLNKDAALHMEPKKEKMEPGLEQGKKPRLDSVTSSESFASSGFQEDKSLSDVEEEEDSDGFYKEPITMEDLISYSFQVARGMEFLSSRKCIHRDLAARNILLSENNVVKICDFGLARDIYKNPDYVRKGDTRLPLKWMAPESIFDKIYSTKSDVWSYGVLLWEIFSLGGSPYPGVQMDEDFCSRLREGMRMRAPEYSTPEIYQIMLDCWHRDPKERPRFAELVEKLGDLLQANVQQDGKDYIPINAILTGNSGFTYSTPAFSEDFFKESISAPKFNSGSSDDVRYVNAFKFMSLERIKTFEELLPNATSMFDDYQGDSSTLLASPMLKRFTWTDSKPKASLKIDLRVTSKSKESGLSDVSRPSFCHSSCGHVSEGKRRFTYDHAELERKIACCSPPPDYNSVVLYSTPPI
UniProt P35968, 20-1356: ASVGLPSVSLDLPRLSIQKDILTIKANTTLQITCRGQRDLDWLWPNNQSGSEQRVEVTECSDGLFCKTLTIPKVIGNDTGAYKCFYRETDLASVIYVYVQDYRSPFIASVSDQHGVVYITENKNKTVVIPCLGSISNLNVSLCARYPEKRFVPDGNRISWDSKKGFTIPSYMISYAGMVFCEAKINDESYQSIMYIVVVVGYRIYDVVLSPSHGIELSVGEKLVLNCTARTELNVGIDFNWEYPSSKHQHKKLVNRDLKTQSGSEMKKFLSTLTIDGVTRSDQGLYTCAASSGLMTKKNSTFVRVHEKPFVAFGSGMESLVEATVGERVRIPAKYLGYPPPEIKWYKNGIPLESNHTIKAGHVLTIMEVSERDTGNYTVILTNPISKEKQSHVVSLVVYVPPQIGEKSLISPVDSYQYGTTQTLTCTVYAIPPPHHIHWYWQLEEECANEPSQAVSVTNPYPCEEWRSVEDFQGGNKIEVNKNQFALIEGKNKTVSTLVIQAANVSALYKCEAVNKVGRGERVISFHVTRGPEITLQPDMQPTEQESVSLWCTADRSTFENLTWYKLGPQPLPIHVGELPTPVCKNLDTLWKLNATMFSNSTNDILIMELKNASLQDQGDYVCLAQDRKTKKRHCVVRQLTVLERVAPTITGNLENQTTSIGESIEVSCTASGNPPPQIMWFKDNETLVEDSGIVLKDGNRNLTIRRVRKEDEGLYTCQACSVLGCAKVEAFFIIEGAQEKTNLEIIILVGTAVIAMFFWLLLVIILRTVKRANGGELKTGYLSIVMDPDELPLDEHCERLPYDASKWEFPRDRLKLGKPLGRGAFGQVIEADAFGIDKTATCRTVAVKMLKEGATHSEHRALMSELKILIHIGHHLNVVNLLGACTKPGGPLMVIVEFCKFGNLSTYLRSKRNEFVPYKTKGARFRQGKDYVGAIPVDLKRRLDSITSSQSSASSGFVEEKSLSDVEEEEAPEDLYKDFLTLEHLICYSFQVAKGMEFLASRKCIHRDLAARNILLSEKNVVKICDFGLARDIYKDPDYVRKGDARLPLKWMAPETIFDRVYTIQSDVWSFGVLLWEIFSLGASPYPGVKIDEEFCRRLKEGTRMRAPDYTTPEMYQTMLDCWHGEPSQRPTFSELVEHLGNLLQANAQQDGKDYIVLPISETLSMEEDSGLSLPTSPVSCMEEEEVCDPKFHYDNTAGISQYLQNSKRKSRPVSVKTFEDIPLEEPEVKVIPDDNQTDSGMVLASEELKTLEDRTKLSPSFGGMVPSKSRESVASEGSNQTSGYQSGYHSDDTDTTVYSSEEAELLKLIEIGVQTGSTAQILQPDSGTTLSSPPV

SMILES strings stand for the structures. Like-named read-outs stand apart in the source and are kept apart here. Some results are limits rather than exact numbers.

Assay [1] concerns the target PDGFR (Homo sapiens, UniProt P09619). Put plainly: PDGFR kinase inhibition. As to conditions: Table 4; read-out: PDGFR kinase Inhibition, apparent IC50. Format: cell-based.
Assay [2] deals with Flt-1 (Homo sapiens, UniProt P17948). Put plainly: Flt-1 kinase inhibition. Format: cell-based.
Assay [3] has as its target Flk-1 (Homo sapiens, UniProt P35968). Put plainly: Phospho-Flk1 phosphotyrosine ELISA (cytoblot) on whole U251 glioblastoma cells; Flk1 kinase inhibition.
Setting [4] is: read-out: Flk-1 kinase Inhibition, apparent IC50, Table 4, U251 cells overexpress Flk1.

Broadly, the IC50 is the midpoint of a concentration-inhibition curve. In the case of `Cc1cc2ncc(-c3ccccc3)nc2cc1C` [AG1295, reference compound], the half-maximal inhibitory concentration (IC50) in assay [1] turned out to be 6.2 µM.

Consider `Nc1nc(Nc2cccc(Br)c2)c2cc(Cc3ccccc3Cl)[nH]c2n1` [YJ/AG 145], for which the IC50 in assay [2] worked out at 26.8 µM; in assay [3] it was 5.6 µM; in assay [3] (read-out: FIK1 Kinase Inhibition IC50, Table 2), 5.6 µM.

For the compound `Nc1nc(Nc2cccc(Br)c2)c2cc(Cc3ccc4ccccc4c3)[nH]c2n1` [YJ/AG 146], in assay [2], inhibition was half-maximal at 15.2 µM (IC50).

Consider `Nc1nc(Nc2cccc(Br)c2)c2cc(Cc3ccc(Cl)c(Cl)c3)[nH]c2n1` [YJ/AG 148], for which the IC50 in assay [2], in assay [3] and in assay [3] (setting [4]) was above 50 µM throughout.

`Nc1nc(Nc2cccc(Br)c2)c2cc(Cc3ccc(-c4ccccc4)cc3)[nH]c2n1` [YJ/AG 154]: the half-maximal inhibitory concentration (IC50) in assay [3] and in assay [3] (setting [4]) was 6 µM each time.

Take `Nc1nc(Nc2cccc(Br)c2)c2cc(Cc3ccccc3)[nH]c2n1` [YJ/AG 156]: the IC50 in assay [2] and in assay [3] was above 50 µM each time.

On to `Nc1nc(Nc2cccc(Br)c2)c2cc(Cc3cccc4ccccc34)[nH]c2n1` [YJ/AG 158], for which the IC50 in assay [3] and in assay [3] (setting [4]) was 5.1 µM each time.

With `Nc1nc(Nc2cccc(Br)c2)c2cc(Cc3ccc(Cl)cc3Cl)[nH]c2n1` [YJ/AG 176], the IC50 in assay [1] is 17 µM; in assay [2], above 50 µM; in assay [3], 28.1 µM; in assay [3] (setting [4]), 28.1 µM.

For the compound `COc1cc(Cc2cc3c(Nc4cccc(Br)c4)nc(N)nc3[nH]2)cc(OC)c1OC` [YJ/AG 177], the IC50 in assay [1] is 14.7 µM; in assay [2], above 50 µM; in assay [3], 9.4 µM; in assay [3] (setting [4]) it was 9.4 µM.

Take `COc1ccc(OC)c(Cc2cc3c(Nc4cccc(Br)c4)nc(N)nc3[nH]2)c1` [YJ/AG 178]: the half-inhibitory concentration (IC50) in assay [1] was 8.9 µM; in assay [2], 31.1 µM.
